From patent US20260265239A1, “CRYSTAL FORM OF 2,6-PIPERIDINEDIONE COMPOUND, AND PREPARATION METHOD THEREFOR AND USE THEREOF” (ZHANGZHOU PIEN TZE HUANG PHARMACEUTICAL CO., LTD., priority 2023, published 2026)
Counter-ions that a name gives are not always drawn. Like-named read-outs stand apart in the source and are kept apart here.

Key:
[1] = tested on: human diffuse large B-cell lymphoma TMD-8 cells; test: BALB/c nude mouse subcutaneous xenograft tumor model of human diffuse large B-cell lymphoma TMD-8 cells; format: in vivo, BALB/c nude mice
Description: The antitumor effect of the test compound was evaluated using a BALB/c nude mouse subcutaneous xenograft tumor model of human diffuse large B-cell lymphoma TMD-8 cells.
• 1. Experimental animals: BALB/c nude mice, female, 6 to 8 weeks old. Vital River Laboratory Animal Technology Co., Ltd. • 2. Cell line: Human diffuse large B-cell lymphoma TMD-8 cells (purchased from Shanghai Huzhen Industrial Co., Ltd.).
Cell culture: Routine cell culture was conducted in RPMI-1640 medium containing 10% fetal bovine serum under 5% CO2 at 37° C. Cells were passaged based on cell growth conditions at a passage ratio of 1:3 to 1:4.
Tumor cell inoculation and grouping: TMD-8 cells in the logarithmic growth phase were harvested, counted, and resuspended in a mixture of 50% serum-free RPMI-1640 medium and 50% Matrigel. The cell concentration was adjusted to 4.0×10^7 cells/mL. […]
The pharmacodynamic experiment was conducted with a 7-day administration cycle, where the test compound was administered once daily intragastrically at 24-hour intervals, for a total of three cycles. During the experiment, animal body weight and tumor size were measured twice a week, and clinical symptoms were observed and recorded daily.
The test compound was administered at doses of 10 mg/kg, 30 mg/kg, and 100 mg/kg, with the vehicle being 10% DMSO/10% Solutol HS15/80% water. Tumor volume (TV) was calculated using the formula: ½×a×b^2, where a and b represent the measured length and width of the tumor, respectively. […] The relative tumor proliferation rate (T/C, %) was calculated using the formula: T/C %=TRTV/CRTV[…] (TRTV: mean RTV of the treatment group; CRTV: mean RTV of the negative control group). The relative tumor volume (RTV) was calculated based on the tumor measurement results, with the formula RTV=Vt/V0, where V0 is the tumor volume measured at the time of grouping administration (i.e., Day 1), and Vt is the tumor volume at a certain measurement time. […]
The experimental data were calculated and subjected to relevant statistical processing using Microsoft Office Excel 2007 software. […]

[2] = Pharmacokinetic evaluation in beagle dogs; format: in vivo; conditions: male, dog, plasma, po, Intragastric administration, read-out: Bioavailability F
Source text: Male beagle dogs were selected as the experimental animals in this study. The LC/MS/MS method was employed to quantitatively determine the plasma drug concentrations at different time points after intravenous injection or intragastric administration of the test compound, aiming to evaluate the pharmacokinetic characteristics of the compound of the present disclosure in beagle dogs.
Beagle dogs (male, 7 to 10 kg, Beijing Mars Biotechnology Co., Ltd.).
A solution of the test compound was slowly injected intravenously into beagle dogs (fed) via the peripheral vein (vehicle: 5% DMSO/10% Solutol/85% H2O), or administered intragastrically to beagle dogs (fed). For intravenous administration, 0.5 mL of blood was collected from the peripheral vein at 0.083, 0.25, 0.5, 1, 2, 4, 6, 8, and 24 h after administration, placed in EDTA-2K anticoagulant tubes, and centrifuged at 3200 g for 10 minutes at 2 to 8° C. to separate the supernatant. […] Plasma drug concentrations were determined by the LC-MS/MS method, and relevant pharmacokinetic parameters were calculated using Phoenix WinNonlin 6.3 or 8.3.5 pharmacokinetic software with non-compartmental model linear-log trapezoidal method.

SMILES | Relative Tumor Volume (Day 22) ([1]; 10 mg/kg intragastric once daily) | Relative Tumor Volume (Day 22) ([1]; 30 mg/kg intragastric once daily) | Relative Tumor Volume (Day 22) ([1]; 100 mg/kg intragastric once daily) | bioavailability ([2]; 15 mg/kg) [%] | bioavailability ([2]; 5 mg/kg) [%]
O=C1CCC(c2noc3ccc4c(NC(=O)CN5CCN(C[C@H]6CC[C@H](n7cc(NC(=O)c8coc(-c9ccnc(NCC%10CC%10)c9)n8)c(C(F)F)n7)CC6)CC5)cccc4c23)C(=O)N1 (some centres unmarked) [Hydrochloride of Compound of Formula (I)] | 4.41 | 2.60 | 1.78 | 60.8 | 
O=C1CCC(c2noc3ccc4c(NC(=O)CN5CCN(C[C@H]6CC[C@H](n7cc(NC(=O)c8coc(-c9ccnc(NCC%10CC%10)c9)n8)c(C(F)F)n7)CC6)CC5)cccc4c23)C(=O)N1 (some centres unmarked) |  |  |  |  | 62
